In PubChem BioAssay (NCI):
The entries are a selection whose mix differs from that of the whole data set. More than one record can exist for a structure, and the calls need not agree. The source made the active and inactive calls. Cut-off read from the data, not from the text of the source: active = growth inhibition above about 70%; inactive = the rest.

Experiments:
[1] = NCI Yeast Anticancer Drug Screen. Data for the rad50 strain (AID 155);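 note: 0% = growth of vehicle-only cultures of the same strain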; conditions: S. cerevisiae rad50 strain growth inhibition; at 50.0 µM; active compounds read high
[2] = NCI Yeast Anticancer Drug Screen. Data for the mec2-1 strain (AID 157); conditions: S. cerevisiae mec2-1 strain, at 50.0 µM, active compounds read high
[3] = NCI Yeast Anticancer Drug Screen. Data for the sgs1 mgt1 strain (AID 161);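 note: 0% = growth of cultures given vehicle only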; conditions: S. cerevisiae sgs1 mgt1 strain, at 50.0 µM, active compounds read high
[4] = NCI Yeast Anticancer Drug Screen. Data for the cln2 rad14 strain (AID 165);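 note: 0% = growth equal to vehicle treated cultures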; conditions: S. cerevisiae cln2 rad14 strain, at 50.0 µM, active compounds read high
[5] = NCI Yeast Anticancer Drug Screen. Data for the bub3 strain (AID 167); conditions: S. cerevisiae bub3 mutant strain, at 50.0 µM, active compounds read high
[6] = NCI Yeast Anticancer Drug Screen. Data for the mlh1 rad18 strain (AID 175); conditions: S. cerevisiae mlh1 rad18 strain growth inhibition; at 50.0 µM; active compounds read high

Measured: growth inhibition

COc1cc([N+](=O)[O-])c([N+](=O)[O-])cc1OC
inactive: [1] 24.8% | [2] -4.1% | [3] 12.4% | [4] -8.7% | [5] 0.35% | [6] 31.5%

NC(CC(=O)O)C(=O)O (stereo unspecified)
inactive: [1] 4.8% | [2] -15.3% | [3] 4.9% | [4] -1.5% | [5] 16.1% | [6] -3.65%

CCOP1(=O)N=C(/N=C(\N)N(CC)CC)N(C)C1(C)C (stereo unspecified)
inactive: [1] -33.9% | [2] 4.35% | [3] -39.4% | [4] -15.2% | [5] -4.8% | [6] -49.5%

COc1ccc(N(CCCl)CCCl)cc1OC
inactive: [1] 17.9% | [2] 8.6% | [3] -20.9% | [4] -4% | [5] 2.7% | [6] -55.2%

CCCOP(=S)(Nc1ccc(C)cn1)OCCC
inactive: [1] 4.75% | [2] -2.5% | [3] 17.2% | [4] -34.3% | [5] 6.05% | [6] -0.65%

Cc1ccc(C(C)(C)O)c(CN(C)C)c1C
inactive: [1] 22.9% | [2] 17.1% | [3] 34.2% | [4] 16.1% | [5] -8.7% | [6] 10.3%

O=[N+]([O-])c1ccc(NP(=O)(Oc2ccccc2)Oc2ccccc2)nc1
inactive: [1] 3.15% | [2] -4.35% | [3] 9.15% | [4] -55.4% | [5] 14.9% | [6] 0.55%

CCCCP(Cl)CCCC
inactive: [1] 0.25% | [2] -14.6% | [3] -14.7% | [4] 9.8% | [5] 16.6% | [6] 5.2%

CCC(C)OP(OC(C)CC)OC(C)CC (stereo unspecified)
inactive: [1] -10.2% | [2] -19.4% | [3] -16.9% | [4] -14.9% | [5] 0.45% | [6] -16.4%

NP(=O)(OCCCCO)N(CCCl)CCCl (stereo unspecified)
inactive: [1] 10.2% | [2] 8.9% | [3] 9.4% | [4] -6.1% | [5] 8.5% | [6] 18.8%

CC(C)NC(C)C
inactive: [1] 2% | [2] -11.3% | [3] 1.55% | [4] -4.35% | [5] -4.05% | [6] 3.8%

C/C(CCl)=N\NC1=NC(C)(CCl)P(=O)(Nc2ncn[nH]2)S1 (stereo unspecified)
inactive: [1] -1.35% | [2] -13.3% | [3] -11.7% | [4] 18.1% | [5] -20.4% | [6] -13.2%

CCOC(=O)NC(=S)N(C)P(=S)(OCC)N(C)C(=S)NC(=O)OCC
inactive: [1] 4.7% | [2] -1.45% | [3] 24.9% | [4] -7.4% | [5] 13.3% | [6] -21.6%

Cc1ccccc1OP(=O)(Cl)Oc1ccccc1C
inactive: [1] -12% | [2] -42% | [3] -0.7% | [4] 9.4% | [5] -36% | [6] -8.7%

O=[N+]([O-])N=C1NCCN1
inactive: [1] 11.3% | [2] 9.1% | [3] 10.9% | [4] 17.6% | [5] 10.4% | [6] 12.8%

O=[As](O)(O)c1ccc([As](=O)(O)O)cc1
inactive: [1] -17.2% | [2] -23.2% | [3] -36.3% | [4] 21.6% | [5] -39.5% | [6] 8.9%

C[N+](CCBr)(CCBr)Cc1ccccc1[N+](=O)[O-]
inactive: [1] 3.3% | [2] -13.8% | [3] 4.35% | [4] -27.4% | [5] -8.2% | [6] -0.65%

Clc1ccc(CNCCI)cc1Cl
inactive: [1] 16.3% | [2] -2.7% | [3] 31.9% | [4] -6.2% | [5] 21% | [6] 4.75%

CCCCCCCCCCCCCC(=O)OCC(COP(=O)(Oc1ccccc1)N(CCCl)CCCl)OC(=O)CCCCCCCCCCCCC (stereo unspecified)
inactive: [1] 6.25% | [2] -3.1% | [3] -9% | [4] -22.6% | [5] 1.3% | [6] -5.3%

Cc1c([N+](=O)[O-])c(C)c(S(=O)(=O)c2c(C)c([N+](=O)[O-])c(C)c([N+](=O)[O-])c2C)c(C)c1[N+](=O)[O-]
inactive: [1] 43% | [2] -2.95% | [3] -1.55% | [4] 3.55% | [5] 12.2% | [6] 12.3%

O=c1c2c3c(sc2nc2n1CC(CBr)S2)CCCC3 (stereo unspecified)
inactive: [1] 63.8% | [2] 34.6% | [3] 33.6% | [4] 27.1% | [5] 56.2% | [6] 40%
